# According to patent EP4837569A1, “COMPOSITION AND METHOD FOR REDUCING BRAIN DAMAGE, DISABILITY, AND/OR DEATH BY COMBINED THERAPY WITH TETRAFLUOROBENZYL DERIVATIVE AND HYPOTHERMIA” (dated 2026):
# Tests used:
# [1] = tested on: OHCA patients who successfully resuscitated and received TTM treatment; conditions: 110 OHCA patients receiving TTM treatment, cited from earlier work
# [2] = tested on: porcine model of cardiac arrest treated with hypothermia; conditions: cited from earlier work
# [3] = tested on: brain white matter of resuscitated cardiac arrest patients receiving hypothermia treatment; experiment: Phase 2 (AWAKE) trial: diffusion tensor MRI (DTI), fractional anisotropy of brain white matter; conditions: for Fractional anisotropy (FA), Whole brain white matter, Median (interquartile range): day 5 after the first drug administration, listed as nelonemdaz
# Method: The Phase 2 study (AWAKE) was conducted in patients with severe or comatose cardiac arrest who returned to spontaneous circulation and arrived at the emergency department within 4 hours and received therapeutic hypothermia (TTM). This study was conducted to investigate the efficacy and safety of nelonemdaz administered intravenously to subjects for 3 days. A total of 105 patients aged 19 to 80 years were enrolled in the AWAKE trial and were randomly assigned in a double-blind fashion to one of three groups to receive intravenous administration of the test drug. The placebo group received 250 ml of 0.9% saline intravenously six times over three days at 12-hour intervals. The low-dose group received a total of 3,250 mg of nelonemdaz (750 mg for the first dose, then 500 mg every 12 hours for the second to sixth doses). The high-dose group received a total of 5,250 mg of nelonemdaz (1,500 mg for the first dose, then 750 mg every 12 hours for the second to sixth doses). […] Neurological outcomes were analyzed using the modified Rankin Scale (mRS) and brain performance category (CPC) analysis at 90 days after the first dose for patients in a severe or coma state before administration of the test drug, and the degree of brain white matter damage was evaluated using diffusion tensor MRI (DTI) images on the 4th or 5th day after the first dose.
# In brain white matter, the diffusion of water molecules moves in a direction parallel to the direction of nerve fiber bundles. […] The protective effect of nelonemdaz on brain white matter was analyzed by comparing whole-brain and region-specific anisotropy values obtained from brain DTI images of resuscitated cardiac arrest patients who received nelonemdaz with those of a placebo group. […]
# To analyze FA values in the whole brain tissue, preprocessing such as image and motion noise removal and skull removal was performed to extract diffusion parameters, and FA values corresponding to the whole brain tissue were calculated. […]
# [4] = tested on: cardiac arrest patients who received hypothermia treatment after successful resuscitation; experiment: Phase 2 (AWAKE) trial: safety, serious adverse events; conditions: for Frequency of medication-related serious adverse events / Frequency of serious adverse events: i.v. over 3 days; for unusual side effects, including schizophrenia symptoms: compared to placebo
# Method: (§1) The Phase 2 study (AWAKE) was conducted in patients with severe or comatose cardiac arrest who returned to spontaneous circulation and arrived at the emergency department within 4 hours and received therapeutic hypothermia (TTM). This study was conducted to investigate the efficacy and safety of nelonemdaz administered intravenously to subjects for 3 days. A total of 105 patients aged 19 to 80 years were enrolled in the AWAKE trial and were randomly assigned in a double-blind fashion to one of three groups to receive intravenous administration of the test drug. The placebo group received 250 ml of 0.9% saline intravenously six times over three days at 12-hour intervals. The low-dose group received a total of 3,250 mg of nelonemdaz (750 mg for the first dose, then 500 mg every 12 hours for the second to sixth doses). The high-dose group received a total of 5,250 mg of nelonemdaz (1,500 mg for the first dose, then 750 mg every 12 hours for the second to sixth doses). Among patients with cardiac arrest outside the hospital, those whose spontaneous circulation resumed for more than 20 minutes and who received hypothermia treatment at 32-34°C for 24 hours upon arrival at the hospital were enrolled. Patients were administered the test drug within 4 hours after spontaneous circulation resumed. Neurological outcomes were analyzed using the modified Rankin Scale (mRS) and brain performance category (CPC) analysis at 90 days after the first dose for patients in a severe or coma state before administration of the test drug, and the degree of brain white matter damage was evaluated using diffusion tensor MRI (DTI) images on the 4th or 5th day after the first dose.
# Unexpected adverse effects, such as symptoms of schizophrenia, have been observed in healthy individuals and ischemic stroke patients treated with NMDA receptor antagonists, which has limited their clinical studies and applications (Hoyte, L. et al., (2004). "The rise and fall of NMDA antagonists for ischemic stroke." Curr Mol Med 4(2): 131-136.). The safety of nelonemdaz, a selective NR2B NMDA receptor antagonist, was investigated in cardiac arrest patients who received hypothermia treatment after successful resuscitation.
# Summary of Serious Adverse Events (AEs) Occurring After Administration of Placebo and nelonemdaz-K in Cardiac Arrest Patients Who Received Hypothermia Treatment After Successful Resuscitation [Table 3]
# [5] = tested on: resuscitated cardiac arrest patients receiving hypothermia treatment; experiment: Phase 2 (AWAKE) trial: modified Rankin Scale (mRS); conditions: for Common Odds Ratio (95% C.I.) of shift in the distribution of mRS scores / patients with mRS 0 / patients with mRS 1 / patients with mRS 2 / patients with mRS 3 / patients with mRS 4 / patients with mRS 5 / patients with mRS 6 / proportion of patients with an mRS of 0: day 90 after the first drug administration; for proportion of subjects with an mRS of 5-6 (poor neurological outcome: severe coma or death) / proportion of subjects with an mRS of 0-2 (good neurological outcome) / decrease of proportion of subjects with mRS 5-6 versus placebo group / increase of proportion of subjects with mRS 0-2 versus placebo group: day 90 after drug administration
# Method: as §1
# The Modified Rankin Scale is an analytical method widely used in clinical trials to assess the degree of disability in patients with stroke and cardiac arrest.
# The disability improvement efficacy of nelonemdaz was analyzed using the modified Rankin Scale (mRS) in cardiac arrest patients resuscitated and receiving TTM treatment. On day 90 after the first drug administration, the proportion of patients with an mRS of 0 (normal) in the placebo group was 37.04%, while the proportion of patients with an mRS of 0 in the low-dose and high-dose nelonemdaz groups increased to 48.15% and 55.56%, respectively.
# [6] = tested on: resuscitated cardiac arrest patients receiving hypothermia treatment; experiment: Phase 2 (AWAKE) trial: Cerebral Performance Category (CPC); conditions: for Common Odds Ratio (95% C.I.) of the shift in the distribution of CPC scores / patients with CPC 1 / patients with CPC 2 / patients with CPC 3 / patients with CPC 4 / patients with CPC 5 / proportion of patients who completely recovered to CPC 1 / proportion of patients with CPC 5 who died: day 90 after the first drug administration; for increase of proportion of patients with CPC 1-2 versus placebo group / proportion of patients with the CPC 1-2 (Good Outcome) / proportion of patients with the CPC 4-5 (Poor Outcome): day 90 after drug administration
# Method: as §1
# The Cerebral Performance Category (CPC) is used as a scale to analyze neurological outcomes after cardiac arrest, with a score ranging from 0 (normal) to 5 (dead).
# Meanwhile, using the Cerebral Performance Category (CPC; 1 = Normal, 2 = Moderate Impairment, 3 = Severe Impairment, 4 = Coma, 5 = Death), the effect of nelonemdaz was analyzed in cardiac arrest patients with severe impairment or coma who had successfully resuscitated and were receiving hypothermia treatment.
# [7] = Nelonemdaz K 3.25g (N=27) compared to placebo
# [8] = Nelonemdaz K 5.25g (N=27) compared to placebo
compound,measurement,setting,value
xenon,neurological function,[1]; after 6 months,no improvement in neurological function was observed
same,white matter (neural network) damage,[1],significant reduction
CC12CC3CC(C)(C1)CC(N)(C3)C2,neuroprotective effect,[2],did not demonstrate a neuroprotective effect
O=C(O)c1cc(NCc2c(F)c(F)c(C(F)(F)F)c(F)c2F)ccc1O,"Fractional anisotropy (FA), Whole brain white matter, Median (interquartile range)",[3]; HIGH dose (n=18),0.465 (0.449-0.485)
same,"Fractional anisotropy (FA), Whole brain white matter, Median (interquartile range)",[3]; LOW dose (n=22),0.462 (0.439-0.480)
same,damage to white matter regions (by regional FA),"[3]; high doses, corpus callosum, superior fronto-occipital fasciculus, fornix, anterior limb of internal capsule, middle and superior cerebellar peduncle, versus placebo",significantly reduced
same,Frequency of medication-related serious adverse events,[4]; Nelonemdaz K 3.25g (N=34),0 (0.00%) Number of patients who experienced the event (% of patients who experienced the event)
same,Frequency of serious adverse events,[4]; Nelonemdaz K 3.25g (N=34),0 (0.00%) Number of patients who experienced the event (% of patients who experienced the event)
same,Frequency of medication-related serious adverse events,[4]; Nelonemdaz K 5.25g (N=37),0 (0.00%) Number of patients who experienced the event (% of patients who experienced the event)
same,Frequency of serious adverse events,[4]; Nelonemdaz K 5.25g (N=37),0 (0.00%) Number of patients who experienced the event (% of patients who experienced the event)
same,"unusual side effects, including schizophrenia symptoms","[4]; high-dose (5,250 mg) group","no unusual side effects, including schizophrenia symptoms, were observed"
same,"unusual side effects, including schizophrenia symptoms","[4]; low-dose (3,250 mg) group","no unusual side effects, including schizophrenia symptoms, were observed"
same,Common Odds Ratio (95% C.I.) of shift in the distribution of mRS scores,[5]; [7],"1.975 (0.714, 5.461)"
same,patients with mRS 0,[5]; Nelonemdaz K 3.25g (N=27),13 (48.15%) N (%)
same,patients with mRS 1,[5]; Nelonemdaz K 3.25g (N=27),2 (7.41%) N (%)
same,patients with mRS 2,[5]; Nelonemdaz K 3.25g (N=27),0 (0.00%) N (%)
same,patients with mRS 3,[5]; Nelonemdaz K 3.25g (N=27),1 (3.70%) N (%)
same,patients with mRS 4,[5]; Nelonemdaz K 3.25g (N=27),0 (0.00%) N (%)
same,patients with mRS 5,[5]; Nelonemdaz K 3.25g (N=27),3 (11.11%) N (%)
same,patients with mRS 6,[5]; Nelonemdaz K 3.25g (N=27),8 (29.63%) N (%)
same,Common Odds Ratio (95% C.I.) of shift in the distribution of mRS scores,[5]; [8],"2.243 (0.806, 6.242)"
same,patients with mRS 0,[5]; Nelonemdaz K 5.25g (N=27),15 (55.56%) N (%)
same,patients with mRS 1,[5]; Nelonemdaz K 5.25g (N=27),1 (3.70%) N (%)
same,patients with mRS 2,[5]; Nelonemdaz K 5.25g (N=27),1 (3.70%) N (%)
same,patients with mRS 3,[5]; Nelonemdaz K 5.25g (N=27),0 (0.00%) N (%)
same,patients with mRS 4,[5]; Nelonemdaz K 5.25g (N=27),0 (0.00%) N (%)
same,patients with mRS 5,[5]; Nelonemdaz K 5.25g (N=27),1 (3.70%) N (%)
same,patients with mRS 6,[5]; Nelonemdaz K 5.25g (N=27),9 (33.33%) N (%)
same,proportion of subjects with an mRS of 5-6 (poor neurological outcome: severe coma or death),[5]; high-dose group (10/27),37%
same,proportion of subjects with an mRS of 0-2 (good neurological outcome),[5]; high-dose group (17/27),62.96%
same,decrease of proportion of subjects with mRS 5-6 versus placebo group,[5]; high-dose group,1.38 fold
same,increase of proportion of subjects with mRS 0-2 versus placebo group,[5]; high-dose group,1.55 fold
same,proportion of patients with an mRS of 0,[5]; high-dose group,55.56%
same,proportion of subjects with an mRS of 5-6 (poor neurological outcome: severe coma or death),[5]; low-dose group (11/27),40.74%
same,proportion of subjects with an mRS of 0-2 (good neurological outcome),[5]; low-dose group (15/27),55.56%
same,decrease of proportion of subjects with mRS 5-6 versus placebo group,[5]; low-dose group,1.31 fold
same,increase of proportion of subjects with mRS 0-2 versus placebo group,[5]; low-dose group,1.375 fold
same,proportion of patients with an mRS of 0,[5]; low-dose group,48.15%
same,Common Odds Ratio (95% C.I.) of the shift in the distribution of CPC scores,[6]; [7],2.13 (0.75-6.03)
same,patients with CPC 1,[6]; Nelonemdaz K 3.25g (N=27),15 (55.56%) N (%)
same,patients with CPC 2,[6]; Nelonemdaz K 3.25g (N=27),0 (0.00%) N (%)
same,patients with CPC 3,[6]; Nelonemdaz K 3.25g (N=27),2 (7.41%) N (%)
same,patients with CPC 4,[6]; Nelonemdaz K 3.25g (N=27),2 (7.41%) N (%)
same,patients with CPC 5,[6]; Nelonemdaz K 3.25g (N=27),8 (29.63%) N (%)
same,Common Odds Ratio (95% C.I.) of the shift in the distribution of CPC scores,[6]; [8],2.22 (0.78-6.30)
same,patients with CPC 1,[6]; Nelonemdaz K 5.25g (N=27),16 (59.26%) N (%)
same,patients with CPC 2,[6]; Nelonemdaz K 5.25g (N=27),1 (3.70%) N (%)
same,patients with CPC 3,[6]; Nelonemdaz K 5.25g (N=27),0 (0.00%) N (%)
same,patients with CPC 4,[6]; Nelonemdaz K 5.25g (N=27),1 (3.70%) N (%)
same,patients with CPC 5,[6]; Nelonemdaz K 5.25g (N=27),9 (33.33%) N (%)
same,increase of proportion of patients with CPC 1-2 versus placebo group,[6]; high-dose group,1.55 fold
same,proportion of patients with the CPC 1-2 (Good Outcome),[6]; high-dose group,62.96%
same,proportion of patients with the CPC 4-5 (Poor Outcome),[6]; high-dose group,37.04%
same,proportion of patients who completely recovered to CPC 1,[6]; high-dose group,59.26%
same,proportion of patients with CPC 5 who died,[6]; high-dose group,33.33%
same,increase of proportion of patients with CPC 1-2 versus placebo group,[6]; low-dose group,1.36 fold
same,proportion of patients with the CPC 1-2 (Good Outcome),[6]; low-dose group,55.55%
same,proportion of patients with the CPC 4-5 (Poor Outcome),[6]; low-dose group,37.04%
same,proportion of patients who completely recovered to CPC 1,[6]; low-dose group,55.56%
same,proportion of patients with CPC 5 who died,[6]; low-dose group,29.63%
